Measurements taken from ChEMBL document CHEMBL4715837, “Dimeric aryl-substituted imidazoles may inhibit ALT cancer by targeting the multimeric G-quadruplex in telomere” (Eur J Med Chem, 2020).

Tested on: U2OS
Assay: Cytotoxicity against human U2OS cells assessed as reduction in cell viability measured after 24 hrs by CCK8 assay
Type: functional, cell-based

CN1CCN(c2ccc(-c3nc(-c4ccc(-c5nc(-c6ccc(F)cc6)c(-c6ccc(N7CCN(C)CC7)cc6)[nH]5)cc4)[nH]c3-c3ccc(F)cc3)cc2)CC1
Activity: Dose-dependent effect
